Laboratory results: US7928140B2, “Benzothiazole PI3 kinase modulators for cancer treatment” (Amgen Inc., priority 2007, dated 2011)

By UniProt entry, the sequences of proteins in these tests, tags left out.
UniProt P42336, whole entry, species assumed: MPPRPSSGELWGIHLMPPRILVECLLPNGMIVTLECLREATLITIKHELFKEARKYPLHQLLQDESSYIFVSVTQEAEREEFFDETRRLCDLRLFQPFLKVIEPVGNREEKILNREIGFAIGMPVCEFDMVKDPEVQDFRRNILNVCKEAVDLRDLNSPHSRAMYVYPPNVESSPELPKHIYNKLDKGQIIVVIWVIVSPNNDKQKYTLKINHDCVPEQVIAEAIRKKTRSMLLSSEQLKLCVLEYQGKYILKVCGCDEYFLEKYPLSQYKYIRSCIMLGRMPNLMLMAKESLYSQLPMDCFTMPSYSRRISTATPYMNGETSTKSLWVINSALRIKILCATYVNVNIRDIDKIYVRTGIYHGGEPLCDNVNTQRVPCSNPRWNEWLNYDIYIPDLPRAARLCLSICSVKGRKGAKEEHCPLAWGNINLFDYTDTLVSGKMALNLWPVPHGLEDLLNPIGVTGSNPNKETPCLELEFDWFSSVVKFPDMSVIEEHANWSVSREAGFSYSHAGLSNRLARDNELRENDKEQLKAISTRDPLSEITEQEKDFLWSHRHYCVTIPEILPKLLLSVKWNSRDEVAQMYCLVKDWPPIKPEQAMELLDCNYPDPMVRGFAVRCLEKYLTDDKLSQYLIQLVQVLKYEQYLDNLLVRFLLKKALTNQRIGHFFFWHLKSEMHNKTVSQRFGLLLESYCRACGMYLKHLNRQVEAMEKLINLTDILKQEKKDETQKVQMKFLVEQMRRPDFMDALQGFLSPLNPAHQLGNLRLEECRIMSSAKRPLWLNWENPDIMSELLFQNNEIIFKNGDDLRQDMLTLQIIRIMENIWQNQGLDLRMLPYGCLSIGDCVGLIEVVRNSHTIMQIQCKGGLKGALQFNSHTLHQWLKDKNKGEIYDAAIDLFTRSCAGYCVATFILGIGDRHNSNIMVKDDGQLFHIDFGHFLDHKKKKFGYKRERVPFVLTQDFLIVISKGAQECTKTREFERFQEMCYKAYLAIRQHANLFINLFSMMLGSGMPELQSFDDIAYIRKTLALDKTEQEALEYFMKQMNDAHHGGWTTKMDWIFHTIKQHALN

Target: T1, PI3K α (Homo sapiens, UniProt P42336)
T1 construct: Full length p110 subunits of PI3K α, β and δ, N-terminally labeled with polyHis tag; polyHis (N); made in house; host or cells: Sf9 insect cells (baculovirus)
Assay: In vitro PI3 kinase enzyme assay (alpha), ATP loss, bioluminescence;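 also: purified p110α/p85 heterodimer acting on PtdIns(4,5)P2 at room temperature, remaining ATP read by luminescence, inhibition scaled between compound-free wells with and without enzyme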
Format: biochemical
Details: read-out: PI3Kα ATP loss IC50
Protocol: The compound in DMSO (1 μL) was added per test well, and the inhibition relative to reactions containing no compound, with and without enzyme was determined.

IC50: 199 nM
SMILES: CC(=O)Nc1nc2ccc(-c3ccnc(Sc4cccc(F)c4)n3)cc2s1 [Example 109, N-(6-(2-((3-fluorophenyl)sulfanyl)-4-pyrimidinyl)-1,3-benzothiazol-2-yl)acetamide]
